Experiments:
[1] = tested on: P. aeruginosa whole cells and membrane fractions; assay: ELISA / immunofluorescence binding of cytokines to P. aeruginosa cells and membrane fractions; design: species or system Pseudomonas aeruginosa; conditions: PAO1 membranes
Protocol: IFN-γ direct binding to a protein on the surface of P. aeruginosa, in the course of virulence activation, was also investigated. ELISA binding assays were performed by first coating microtiter plates with P. aeruginosa (strain PAO1), then adding recombinant human IFN-γ (rH IFN-γ), followed by biotin-labeled anti-IFN-γ antibody. […] The ELISA data were confirmed by the results of immunofluorescent imaging of bacterial cells exposed to IFN-γ followed by biotin-labeled anti-IFN-γ antibody and Alexa 594-labeled streptavidin. The vast majority of bacterial cells (73%±3.2% vs. 8.5%±2.5%) bound IFN-γ (FIG. 3B). The binding capacity of the IFN-γ to the P. aeruginosa was affected by bacterial growth phase (FIG. 4A). In order to localize the binding site of IFN-γ to P. aeruginosa (PAO1), equal protein concentrations of membrane and cytosol fractions of P. aeruginosa were prepared and coated onto ELISA microtiter plates. […] To determine if the observed membrane binding by IFN-γ was protein dependent, membrane fractions were treated with proteinase K for 3 hours and IFN-γ binding assessed. […] We next determined if other cytokines similarly would bind to P. aeruginosa cell membranes by performing reiterative binding studies with human TNF-α, IL-2, IL-4, IL-10, EGF, and TGF-β.

[2] = tested on: PA-I lectin/adhesin expression in P. aeruginosa PA27853 and PAO1

IL-2: human cytokine
binding to P. aeruginosa membrane fractions [1]: No binding was observed | PA-I expression, compound alone in media [2]: none of the other compounds alone had any effect
